Data as given in patent publication US7683168B2, “Compositions of novel opioid compounds and method of use thereof” (priority 2005, dated 2010).

By UniProt entry, the sequences of proteins in these tests, tags left out. Where a name states a change or a piece, a line headed by the entry shows the natural chain unless it says otherwise.
UniProt P41143: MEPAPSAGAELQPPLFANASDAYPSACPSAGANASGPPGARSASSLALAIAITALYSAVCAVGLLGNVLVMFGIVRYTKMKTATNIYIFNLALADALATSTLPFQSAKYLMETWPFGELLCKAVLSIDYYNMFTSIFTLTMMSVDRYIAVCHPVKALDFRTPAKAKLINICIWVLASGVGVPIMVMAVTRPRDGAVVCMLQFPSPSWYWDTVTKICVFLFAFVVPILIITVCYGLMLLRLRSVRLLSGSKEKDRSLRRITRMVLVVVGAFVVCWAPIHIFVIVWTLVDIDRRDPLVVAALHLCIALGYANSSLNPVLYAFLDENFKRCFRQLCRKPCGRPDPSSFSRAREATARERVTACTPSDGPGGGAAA
UniProt P35372: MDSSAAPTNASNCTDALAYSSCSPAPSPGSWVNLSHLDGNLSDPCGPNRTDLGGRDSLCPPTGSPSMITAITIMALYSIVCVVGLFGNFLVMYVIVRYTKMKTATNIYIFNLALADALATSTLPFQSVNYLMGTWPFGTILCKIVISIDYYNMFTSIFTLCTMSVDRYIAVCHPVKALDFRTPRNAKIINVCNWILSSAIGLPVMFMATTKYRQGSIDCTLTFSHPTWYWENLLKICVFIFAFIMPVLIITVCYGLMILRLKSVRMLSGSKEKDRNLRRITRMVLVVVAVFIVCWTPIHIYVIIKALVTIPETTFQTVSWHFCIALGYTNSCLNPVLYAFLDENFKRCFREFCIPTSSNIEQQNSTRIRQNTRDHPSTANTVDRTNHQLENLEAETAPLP

How the values were obtained:
[1] = tested on: seizure-like convulsions in mice; test: mouse seizure-like convulsions; format: in vivo; settings: 10 mg/kg IV
Method: Mouse Seizure-Like Convulsions and antinociception: The central (CNS) effects of the compound were tested with central delta receptor mediated seizure-like convulsions and central mu opioid receptor mediated antinociceptive effects in mice. Male CD-1 mice (Charles River, Raleigh, N.C.) weighing 20-25 g were used to determine the seizure-like convulsion and antinociception activities for compounds.
They were then observed for seizure-like convulsions for one hour following the treatment. A seizure-like event was recorded if a mouse had uncontrollable clonic (or tonic/clonic) muscle movements that encompassed its entire body, usually followed by a brief cataleptic period. Catalepsy was determined by placing the animal's front paws on a horizontal bar held 2-3 inches from the cage floor. Cataleptic animals made no attempt to remove their paws.

human delta receptor = human delta receptor (Homo sapiens, UniProt P41143); test: radioligand binding, human delta receptor, HEK-293 cell membranes; settings: read-out: δ, cell not marked (rat), species not given
guinea pig ileum = test: electrically stimulated guinea pig ileum (GPI) ED50; format: cell-based; settings: read-out: GPI; ED50, inhibition of electrically induced contractions
Method: Further the compounds of formula (1) were evaluated for in vitro opioid receptor activity in various receptor systems, including mouse vas deferens (Mouse Vas Deferens ED50), and guinea pig ileum (Guinea Pig Ileum ED50). The assay procedures used for such determinations of receptor activity are set out below.
Intact ileums (about 3 cm length) were removed from guinea pig and suspended with 1 g of tension in a bath chamber as described for the vasa deferentia. The ileums were stimulated with electrical square-wave pulses of 0.1-Hz, 1 msec pulse duration at supramaximal voltage.
The ED50 values were extrapolated from curves showing the dose concentration plotted against the response (J. A. H. Lord, A. A. Waterfield, J. Hughes, H. W. Kosterlitz, Nature 267, 495, (1977)).

human mu opioid receptor = human mu opioid receptor (Homo sapiens, UniProt P35372); test: radioligand binding, human mu opioid receptor, CHO cell membranes; settings: read-out: μ, cell not marked (rat), species not given
mouse vas deferens = test: electrically stimulated mouse vas deferens (MVD) ED50; format: cell-based; settings: read-out: MVD; ED50, inhibition of electrically induced contractions

| Substance | Seiz. [1] [% 10 mg/kg IV] | Ki (human delta receptor) [nM] | EC50 (guinea pig ileum) [nM] | Ki (human mu opioid receptor) [nM] | EC50 (mouse vas deferens) [nM] |
| --- | --- | --- | --- | --- | --- |
| 4-(4-{3-[(R)-((2S,5R)-4-Allyl-2,5-dimethyl-piperazin-1-yl)-(3-hydroxy-phenyl)-methyl]-benzoyl}-piperazin-1-ylmethyl)-benzoic acid | 0 | 1.7 | 304 | 30.7 | 9.82 |
| 7-(4-{3-[(R)-((2S,5R)-4-Cyclopropylmethyl-2,5-dimethyl-piperazin-1-yl)-(3-hydroxy-phenyl)-methyl]-benzoyl}-[1,4]diazepan-1-yl)-heptanoic acid |  | 23.2 |  | 4 | 39 |
